Assay results as given in patent US20230357422A1 (published 2023).

Target: HZ-L-Yr-13&14-16-1
Assay: ELISA on coated his-tagged protein
Protocol: Human 4-1BB-his, GITR-his, OX40-his, CD40-his proteins (purchased from ACRO) were dissolved according to the instructions, diluted to 1 μg/ml with ELISA coating solution (purchased from Shanghai Sangon), coated on ELISA plate at 100 allowed to stand overnight at 4° C., and washed for 3 times with PBST, 5% BSA (purchased from Shanghai Sangon) was added at 200 μl/well to block for 1 hour at room temperature. The coating solution was discarded, 4-1BB antibody diluted with 1% BSA was added at 100 200 nM in three replicate wells, and incubated at room temperature for 2 hours. Washing was performed with PBST for 3 times, and goat anti-human IgG-Fc-HRP (purchased from abcam) diluted with 1% BSA was added at 100 μl/well, and incubated at room temperature for 1 hour. Washing was performed 3 times with PBST, ELISA chromogenic solution (purchased from Solarbio) was added at 100 μl/well to react at room temperature for 3 minutes, ELISA stop solution (purchased from Solarbio) was added at 50 and the absorbance value at 450 nm was read.

B1: CD40-his (receptor, human, UniProt P25942 21-193, looked up)
chain: EPPTACREKQYLINSQCCSLCQPGQKLVSDCTEFTETECLPCGESEFLDTWNRETHCHQHKYCDPNLGLRVQQKGTSETDTICTCEEGWHCTSEACESCVLHRSCSPGFGVKQIATGVSDTICEPCPVGFFSNVSSAFEKCHPWTSCETKDLVVQQAGTNKTDVVCGPQDRLR
notes: 'Human' heads the list and is read as applying to all four proteins; not shown: his tag
  binding result: no binding (tested: 200 nM)
